# Only a part is listed here, and it is no random draw. Activity calls are given as the source filed them. Calls come from the whole dose curve; as a rule, active = well fitted activation curve with a large enough effect; inconclusive = small, poorly fitted or top-dose-only effect; inactive = flat fitted curve, though single readings scatter.
# Test: qHTS of Nrf2 Activators; note: % of control where 0% means no effect; nearly all actives have a fitted effect of over 65% in size
# Details: AREc32 ARE-luciferase reporter (MCF7-derived line), luminescence, 24 h; at 46.1 µM (top of the series) unless noted
# From the text: Many diseases have some form of oxidative stress injury and ties to inflammation, causing a host of problems for the patient. The antioxidant response element (ARE) plays an important role in alleviating the harmful effects of oxidative stress. The antioxidant response element (ARE) is a transcriptional regulatory element involved in the activation of genes coding for a number of antioxidant proteins and detoxifying enzymes. These enzymes work in concert to protect tissues from oxidative insults and chemical toxicities in human hepatocytes and immune cells. The protective effects of ARE activation are primarily triggered through Nrf2 (NF-E2-related factor) binding to and activating AREs. It is known that Nrf2 controls the production of over 250 antioxidant and detoxification proteins (Hu et al., 2006), thereby protecting tissues by increasing cellular antioxidant content and suppressing inflammatory signaling pathways. The transcription factor Nrf2 is a central link between oxidative chemicals, such as phenolic antioxidants and electrophilic compounds, and the activation of ARE. Nrf2 levels are constitutively low as a consequence of its interaction with Keap1, which targets its degradation (Zipper and Mulcahy, 2002). Electrophiles react with key cysteine residues in Keap1, releasing Nrf2 and allowing its translocation to the nucleus. Once within the nucleus, Nrf2 complexes with coactivators such as p300, and binds to the AREs to induce gene transcription of cytoprotective enzymes, resulting in the prevention of toxicity. Activation of Nrf2 protects tissues by increasing cellular antioxidant content and suppressing inflammatory signaling pathways. Identifying novel and potent Nrf2 activators by using the AREc32 cell line to detect ARE activation by small molecules will lead to the identification and development of probes to study protective pathways in multiple tissues. These specific probes are essential to study the ARE pathway, and eventually to determine whether this pathway does activate genes that could protect against a host of diseases, including cardiovascular diseases, obesity, diabetes, Alzheimer's, and Parkinson's disease.
# This project's aim is to identify novel and potent Nrf2 activators by using the AREc32 cell line to detect ARE activation by small molecules, which will lead to the identification and development of probes to study the ARE pathway.
# NIH Chemical Genomics Center [NCGC]
# NIH Molecular Libraries Probe Centers Network [MLPCN]
# Assay Submitter (PI): Curtis Klaassen, University of Kansas Medical Center
# 5 uL of 1000 cells/well of AREc32_Fluc cells are seeded into 1536-well plate in OPTI-MEM medium with 5% FBS. The plates are incubated overnight at 37 deg C with 5% CO2. Then through pin tool transfer, 23 nL of compounds are added to each well before a 24 hr incubation at 37 deg C with 5% CO2. After the addition of 2.5 uL of Steady-Glo. the plates are kept at RT for 30 min, before they are read on the ViewLux.
row,Compound,activation
1,CSc1ccccc1C(=O)NCC1(N2CCCCC2)CCCCC1,inactive: -0.678%
2,Cc1cccc(NC2(C#N)CCN(Cc3ccccc3)CC2)c1,inactive: 0.22%
3,O=C(NCC1(N2CCCCC2)CCCCC1)c1ccc(=O)[nH]c1,inactive: -0.0733%
4,O=C(NCC1(N2CCCCC2)CCCCC1)c1cccs1,inactive: -0.292%
5,CCCCn1nnnc1C(CC)N1CCC(n2c(=O)[nH]c3ccccc32)CC1 (centres undefined),inactive: 0.337%
6,CCCCn1nnnc1C(c1cccs1)N1CCC(n2c(=O)[nH]c3ccccc32)CC1 (centres undefined),inactive: 0.704%
7,COc1ccc(C(=O)NCC2(N3CCCCC3)CCCCC2)cc1,inactive: 0.589%
8,CC(C)(C)OC(=O)N1CCC(N(C(=O)c2ccccc2)c2ccc(F)cc2)CC1,inactive: -0.776%
9,COc1ccc(C(=O)NCC2(N3CCCCC3)CCCCC2)c(OC)c1OC,inactive: -1.12%
10,CCC(c1nnnn1C1CCCC1)N1CCC(n2c(=O)[nH]c3ccccc32)CC1 (centres undefined),inactive: 0.19%
11,CCOC(=O)N1CCC(Nc2ccc(OC)cc2)CC1,inactive: -0.476%
12,CCCCn1nnnc1C(c1ccc(OC)cc1)N1CCC(n2c(=O)[nH]c3ccccc32)CC1 (centres undefined),inactive: 4.2%
13,N#CC1(Nc2ccccc2)CCN(Cc2ccccc2)CC1,inactive: -0.523%
14,O=C(NCC1(N2CCCCC2)CCCCC1)c1ccc(Cl)s1,inactive: 0.238%
15,O=C(OC1CN2CCC1CC2)C1c2ccccc2Oc2ccccc21 (centres undefined),inactive: 0.341%
16,O=c1[nH]c2ccccc2n1C1CCN(C(c2cc3ccccc3o2)c2nnnn2C2CCCCC2)CC1 (centres undefined),inactive: -1.2%
17,COc1ccc(Cl)cc1C(=O)NCC1(N2CCOCC2)CCCCC1,inactive: -0.153%
18,O=C1C(O)=C([N+](=O)[O-])C(=O)C(O)=C1[N+](=O)[O-],inactive: 0.288%
19,O=C(NCC1(N2CCOCC2)CCCCC1)c1cc2ccccc2o1,inactive: 0.79%
20,O=C(NCC1(N2CCCCC2)CCCCC1)c1ccc(Cl)nc1,inactive: -0.424%
21,O=c1[nH]c2ccccc2n1C1CCN(C(c2ccccc2OC(F)(F)F)c2nnnn2C2CCCCC2)CC1 (centres undefined),inactive: -0.701%
22,Cc1cc(C)cc(N(C(=O)c2ccccc2)C2CCN(C(=O)OC(C)(C)C)CC2)c1,inactive: 3.11%

row,Compound,activation
1,O=P1(N(CCCl)CCCl)SCCCS1,inactive: 2.54%
2,CCCCn1nnnc1C(c1cc2ccccc2o1)N1CCC(n2c(=O)[nH]c3ccccc32)CC1 (centres undefined),inactive: -3.3%
3,CCCCOc1ccc(C(=O)NCC2(N3CCOCC3)CCCCC2)cc1,inactive: -1.4%
4,O=C(NCC1(N2CCCCC2)CCCCC1)c1ccc(F)cc1,inactive: -0.594%
5,COc1ccc(NC2CCN(CCc3ccccc3)CC2)c(OC)c1,inactive: 0.349%
6,CCOC(=O)N1CCC(Nc2ccc(F)cc2)CC1,inactive: 0.286%
7,COc1ccccc1C(=O)NCC1(N2CCOCC2)CCCCC1,inactive: 0.497%
8,CCOc1ccc(C)cc1CN(CCCl)CCCl,inactive: 0.0585%
9,CC(C)(C)n1nnnc1C(c1ccccc1)N1CCC(n2c(=O)[nH]c3ccccc32)CC1 (centres undefined),inactive: 0.545%
10,O=C(NCC1(N2CCOCC2)CCCCC1)c1ccc(Cl)cc1,inactive: 0.0517%
11,O=C1CCN(Cc2ccccc2)CC1,inactive: 0.812%
12,O=c1[nH]c2ccccc2n1C1CCN(C(c2cccc3ccccc23)c2nnnn2C2CCCC2)CC1 (centres undefined),inactive: 0.204%
13,CCOC(=O)N1CCC(Nc2cccc(C)c2)CC1,inactive: 0.0108%
14,COc1cc(C(=O)NCC2(N(C)C)CCCCC2)ccc1OC(F)F,inactive: 1.61%
15,O=c1[nH]c2ccccc2n1C1CCN(C(c2ccccc2)c2nnnn2C2CCCCC2)CC1 (centres undefined),inactive: 0.447%
16,CSc1ccc(C(=O)NCC2(N3CCOCC3)CCCCC2)cc1,inactive: 0.0908%
17,CCOc1ccc(C(=O)NCC2(N3CCOCC3)CCCCC2)cc1,inactive: -1.24%
18,O=C(NCC1(N2CCCCC2)CCCCC1)c1cccc([N+](=O)[O-])c1,inactive: -1.32%
19,CCN1CCC(Nc2ccc(Cl)cc2)CC1,inactive: -0.111%
20,O=c1[nH]c2ccccc2n1C1CCN(C(c2ccccc2OC(F)(F)F)c2nnnn2C2CCCC2)CC1 (centres undefined),inactive: 0.436%
21,N#CC1(Nc2ccccc2)CCN(CCc2ccccc2)CC1,inactive: 2.28%
22,CC(C)(C)n1nnnc1C(c1ccccc1OC(F)(F)F)N1CCC(n2c(=O)[nH]c3ccccc32)CC1 (centres undefined),inactive: -3.29%

# — PubChem BioAssay AID624171 (National Center for Advancing Translational Sciences (NCATS), 2012)
